What was measured:
Assay in all cases: SPR; Biacore T200, 25°C; IgG captured on amine-coupled recombinant truncated human CD2 (CM5 chip); Fcγ receptors injected for 120 s in concentration series up to 0.5 μM; 10 mM HEPES pH 7.4, 150 mM NaCl, 0.5 mM EDTA, 0.05% Tween20; 1:1 or heterogeneous binding model, or steady state analysis for weaker interactions
[1] = target: Fc-silent siplizumab (FcS anti-CD2 IgG1) (human (humanized antibody))
[2] = target: Deglycosylated (DG) siplizumab (human (humanized antibody))
[3] = target: FcS anti-CD2 IgG4 (not stated | human (humanized antibody))
[4] = target: FcS anti-CD2 IgG2 (not stated | human (humanized antibody))

Chains of the proteins cited; added tags and fusions are not shown. Chains listed by the source or under a name are the forms on record and can include a tag or linker. Residues count along the entry.
UniProt P12314, 16-292: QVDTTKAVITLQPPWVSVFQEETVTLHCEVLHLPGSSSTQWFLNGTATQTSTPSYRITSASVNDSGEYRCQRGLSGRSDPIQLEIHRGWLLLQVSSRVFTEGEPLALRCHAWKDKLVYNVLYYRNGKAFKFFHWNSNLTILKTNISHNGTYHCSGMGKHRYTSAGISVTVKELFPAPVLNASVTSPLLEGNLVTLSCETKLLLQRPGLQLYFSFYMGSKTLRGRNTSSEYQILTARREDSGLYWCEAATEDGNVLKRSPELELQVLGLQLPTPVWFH
Fc-silent siplizumab (FcS anti-CD2 IgG1) (human (humanized antibody)), light, as listed by the source, chain 2 of 2: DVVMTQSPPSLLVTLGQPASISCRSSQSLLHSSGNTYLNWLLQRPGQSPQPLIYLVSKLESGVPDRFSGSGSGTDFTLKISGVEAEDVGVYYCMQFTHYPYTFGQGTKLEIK
Fc-silent siplizumab (FcS anti-CD2 IgG1) (human (humanized antibody)), heavy, as listed by the source, chain 1 of 2: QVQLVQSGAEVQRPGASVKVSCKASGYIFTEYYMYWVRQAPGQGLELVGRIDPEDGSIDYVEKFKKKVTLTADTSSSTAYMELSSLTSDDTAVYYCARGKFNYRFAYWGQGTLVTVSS

Kd [1]: > 2000 nM
Kd [2]: 1.13 nM
Kd [3]: > 2000 nM
Kd [4]: > 2000 nM
Substance: Fc gamma receptor I (FcγRI) (from UniProt P12314 16-292)
